Laboratory results reported in ChEMBL document CHEMBL1139386, “Discovery of novel CB2 receptor ligands by a pharmacophore-based virtual screening workflow” (J Med Chem, 2009).

The chains behind the UniProt entries cited, without tags or fusion partners.
UniProt P34972, whole entry: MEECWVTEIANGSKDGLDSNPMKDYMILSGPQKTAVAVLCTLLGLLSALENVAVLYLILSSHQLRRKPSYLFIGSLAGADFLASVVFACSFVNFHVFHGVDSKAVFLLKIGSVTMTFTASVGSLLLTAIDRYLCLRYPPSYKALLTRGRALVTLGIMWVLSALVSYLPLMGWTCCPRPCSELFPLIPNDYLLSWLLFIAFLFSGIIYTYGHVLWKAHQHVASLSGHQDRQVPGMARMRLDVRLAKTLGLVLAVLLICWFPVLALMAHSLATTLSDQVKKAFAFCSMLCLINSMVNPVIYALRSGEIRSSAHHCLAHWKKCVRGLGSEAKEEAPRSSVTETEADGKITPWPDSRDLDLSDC

Target: Cannabinoid receptor 2 (Homo sapiens, UniProt P34972)
Assay: Binding affinity to CB2 receptor

CCCCCCC(C)(C)c1cc(OC)c([C@H]2C=C(CO)[C@@H]3C[C@H]2C3(C)C)c(OC)c1
Ki: 22.7 nM
